Values quoted from earlier work, collected in paper PMC5375023 (Neurochemistry international, 2017).

Sequences of proteins named here, by UniProt entry; tags and fusion partners are left off. A change or cut given only in a name is not applied to a line headed by its entry.
UniProt Q99720, whole entry: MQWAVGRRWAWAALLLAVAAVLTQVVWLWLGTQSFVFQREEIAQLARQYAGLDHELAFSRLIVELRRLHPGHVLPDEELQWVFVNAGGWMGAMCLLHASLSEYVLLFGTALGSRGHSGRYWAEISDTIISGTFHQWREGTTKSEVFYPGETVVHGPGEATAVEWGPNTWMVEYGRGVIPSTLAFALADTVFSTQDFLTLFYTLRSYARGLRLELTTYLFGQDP

Biological target: human S1R (Homo sapiens, UniProt Q99720)
Conditions: ref Lee et al., 2008; cited from earlier work

(+)-SKF10047
affinity for the S1R, in words: relatively low affinity
